These are literature values, as cited in patent US11357232B2, “Methods of improving soil health, growth and vigor of perennial grass communities” (Edaphix, LLC, priority 2013, dated 2022).

This series has as its system French marigold. To be noted: in vivo; cited from earlier work.

Take iron: the “concentration inducing micro-nutrient toxicity” value is 2000 ng/mL.
